Molecular target: T1, 3-hydroxy-3-methylglutaryl-coenzyme A reductase (Homo sapiens, UniProt P04035)
T1 sequence (P04035 whole entry): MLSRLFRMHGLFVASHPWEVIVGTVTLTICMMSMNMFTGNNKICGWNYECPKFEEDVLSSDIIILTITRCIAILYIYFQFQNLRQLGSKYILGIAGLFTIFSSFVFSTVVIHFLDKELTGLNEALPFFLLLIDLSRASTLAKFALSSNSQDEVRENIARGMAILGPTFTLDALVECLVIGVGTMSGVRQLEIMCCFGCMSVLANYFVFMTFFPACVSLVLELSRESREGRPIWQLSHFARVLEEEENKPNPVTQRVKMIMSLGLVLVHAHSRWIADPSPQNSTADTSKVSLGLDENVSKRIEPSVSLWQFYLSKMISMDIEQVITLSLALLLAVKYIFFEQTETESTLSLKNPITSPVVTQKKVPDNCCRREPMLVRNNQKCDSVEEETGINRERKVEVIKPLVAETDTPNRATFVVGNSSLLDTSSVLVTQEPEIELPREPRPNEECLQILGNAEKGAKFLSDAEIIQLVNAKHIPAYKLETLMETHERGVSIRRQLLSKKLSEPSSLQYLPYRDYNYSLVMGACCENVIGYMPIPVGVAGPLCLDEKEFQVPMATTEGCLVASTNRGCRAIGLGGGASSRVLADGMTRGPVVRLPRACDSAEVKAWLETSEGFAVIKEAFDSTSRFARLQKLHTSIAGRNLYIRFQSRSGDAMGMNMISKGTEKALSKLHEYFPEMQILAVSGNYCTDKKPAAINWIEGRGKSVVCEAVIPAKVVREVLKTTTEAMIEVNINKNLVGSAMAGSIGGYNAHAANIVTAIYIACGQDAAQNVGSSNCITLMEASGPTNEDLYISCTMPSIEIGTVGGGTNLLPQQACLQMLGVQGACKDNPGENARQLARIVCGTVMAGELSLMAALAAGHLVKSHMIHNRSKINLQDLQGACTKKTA
Assay: In vitro HMG-CoA reductase inhibitory activity to inhibit cellular steroidgenesis in Hep G2 cells (human hepatoma cell line)
Assay type: cell-based, HepG2

Work on `CC[C@H](C)C(=O)O[C@H]1C[C@H](O)C=C2C=C[C@H](C)[C@H](CC[C@@H](O)C[C@@H](O)CC(=O)O)[C@H]21` [PRAVASTATIN SODIUM] yielded an IC50 of 1.37 µM.

Source: ChEMBL document CHEMBL1134061, “Synthesis and biological evaluations of condensed pyridine and condensed pyrimidine-based HMG-CoA reductase inhibitors” (Bioorg Med Chem Lett, 2001)
